In PubChem BioAssay AID1159606 (Sanford-Burnham Center for Chemical Genomics, 2016):
The list shows a part of the results, in another mix than the full data. Calls of active or inactive are those of the source. Cut-off read from the data, not from the text of the source: active = inhibition above about 50%; inactive = the rest.

Assay: inhibitors of TWEAK-Fn14 signaling, primary screen, luciferase reporter cells, uHTS (AID 1159606)
Details: TWEAK-stimulated Fn14 reporter cells, luciferase luminescence, 8 h; at 10 µM; active compounds read high

| SMILES | inhibition |
| --- | --- |
| COc1ccc(C(=O)NCC2(N3CCCCC3)CCCCC2)c(OC)c1OC | inactive: -3.76% |
| CC(C)(C)OC(=O)N1CCC(N(C(=O)c2ccccc2)c2ccc(F)cc2)CC1 | inactive: 0.62% |
| CCC(c1nnnn1C1CCCC1)N1CCC(n2c(=O)[nH]c3ccccc32)CC1 (stereo not drawn) | inactive: -36.1% |
| COc1ccc(C(=O)NCC2(N3CCCCC3)CCCCC2)cc1 | inactive: 7.19% |
| CCCCn1nnnc1C(CC)N1CCC(n2c(=O)[nH]c3ccccc32)CC1 (stereo not drawn) | inactive: -3.62% |
| O=C(NCC1(N2CCCCC2)CCCCC1)c1cccs1 | inactive: -0.99% |
| CCCCn1nnnc1C(c1cccs1)N1CCC(n2c(=O)[nH]c3ccccc32)CC1 (stereo not drawn) | inactive: 18.9% |
| O=C(NCC1(N2CCCCC2)CCCCC1)c1ccc(=O)[nH]c1 | inactive: 12.8% |
| Cc1cccc(NC2(C#N)CCN(Cc3ccccc3)CC2)c1 | inactive: -1.91% |
| CSc1ccccc1C(=O)NCC1(N2CCCCC2)CCCCC1 | inactive: -13.3% |
| Cc1cc(C)cc(N(C(=O)c2ccccc2)C2CCN(C(=O)OC(C)(C)C)CC2)c1 | inactive: -2.84% |
| O=C(NCC1(N2CCCCC2)CCCCC1)c1ccc(Cl)nc1 | inactive: -8.86% |
| O=c1[nH]c2ccccc2n1C1CCN(C(c2ccccc2OC(F)(F)F)c2nnnn2C2CCCCC2)CC1 (stereo not drawn) | inactive: 5.24% |
| O=C(NCC1(N2CCOCC2)CCCCC1)c1cc2ccccc2o1 | inactive: -10.1% |
| COc1ccc(Cl)cc1C(=O)NCC1(N2CCOCC2)CCCCC1 | inactive: -1.01% |
| N#CC1(Nc2ccccc2)CCN(Cc2ccccc2)CC1 | inactive: -0.84% |
| O=C(NCC1(N2CCCCC2)CCCCC1)c1ccc(Cl)s1 | inactive: -16.1% |
| O=c1[nH]c2ccccc2n1C1CCN(C(c2cc3ccccc3o2)c2nnnn2C2CCCCC2)CC1 (stereo not drawn) | active: 81.2% |
| O=C(OC1CN2CCC1CC2)C1c2ccccc2Oc2ccccc21 (stereo not drawn) | inactive: -1.31% |
| CCCCn1nnnc1C(c1ccc(OC)cc1)N1CCC(n2c(=O)[nH]c3ccccc32)CC1 (stereo not drawn) | inactive: -7.96% |
| CCOC(=O)N1CCC(Nc2ccc(OC)cc2)CC1 | inactive: -3.76% |
| O=C1CCN(Cc2ccccc2)CC1 | inactive: 2.92% |

| SMILES | inhibition |
| --- | --- |
| CC(C)(C)n1nnnc1C(c1ccccc1)N1CCC(n2c(=O)[nH]c3ccccc32)CC1 (stereo not drawn) | inactive: -13.9% |
| CCOc1ccc(C)cc1CN(CCCl)CCCl | inactive: -5.32% |
| CCOC(=O)N1CCC(Nc2ccc(F)cc2)CC1 | inactive: 1.83% |
| COc1ccc(NC2CCN(CCc3ccccc3)CC2)c(OC)c1 | inactive: 1.16% |
| CCCCOc1ccc(C(=O)NCC2(N3CCOCC3)CCCCC2)cc1 | inactive: 2.86% |
| O=P1(N(CCCl)CCCl)SCCCS1 | inactive: 25.2% |
| CCCCn1nnnc1C(c1cc2ccccc2o1)N1CCC(n2c(=O)[nH]c3ccccc32)CC1 (stereo not drawn) | active: 58.6% |
| O=C(NCC1(N2CCCCC2)CCCCC1)c1ccc(F)cc1 | inactive: 9.76% |
| O=c1[nH]c2ccccc2n1C1CCN(C(c2ccccc2)c2nnnn2C2CCCCC2)CC1 (stereo not drawn) | inactive: 36.6% |
| CCOC(=O)N1CCC(Nc2cccc(C)c2)CC1 | inactive: 1.14% |
| COc1cc(C(=O)NCC2(N(C)C)CCCCC2)ccc1OC(F)F | inactive: 7.45% |
| O=c1[nH]c2ccccc2n1C1CCN(C(c2cccc3ccccc23)c2nnnn2C2CCCC2)CC1 (stereo not drawn) | inactive: 14.3% |
| O=C(NCC1(N2CCCCC2)CCCCC1)c1ccc(OC(F)F)cc1 | inactive: -3.92% |
| CC(C)(C)n1nnnc1C(c1ccccc1OC(F)(F)F)N1CCC(n2c(=O)[nH]c3ccccc32)CC1 (stereo not drawn) | inactive: 19.8% |
| O=c1[nH]c2ccccc2n1C1CCN(C(c2ccccc2OC(F)(F)F)c2nnnn2C2CCCC2)CC1 (stereo not drawn) | inactive: 28.4% |
| N#CC1(Nc2ccccc2)CCN(CCc2ccccc2)CC1 | inactive: -3.53% |
| CCN1CCC(Nc2ccc(Cl)cc2)CC1 | inactive: 4.31% |
| CSc1ccc(C(=O)NCC2(N3CCOCC3)CCCCC2)cc1 | inactive: -1.78% |
| O=C(NCC1(N2CCCCC2)CCCCC1)c1cccc([N+](=O)[O-])c1 | inactive: 8.84% |
| O=C(NCC1(N2CCCCC2)CCCCC1)c1cccc(C(F)(F)F)c1 | inactive: 13.9% |
| O=C(NCC1(N2CCOCC2)CCCCC1)c1cc(=O)[nH]c2ccccc12 | inactive: 15.3% |
| COc1cc(C(=O)NCC2(N3CCCCC3)CCCCC2)ccc1OC(F)F | inactive: 7.32% |

| SMILES | inhibition |
| --- | --- |
| COc1ccc(NC2CCN(C(=O)OC(C)(C)C)CC2)cc1 | inactive: -6.21% |
| CC(C)c1ccc(C(=O)NCC2(N3CCOCC3)CCCCC2)cc1 | inactive: -20.3% |
| CN1CCN(CCOC(=O)C(O)(c2ccccc2)c2ccccc2)CC1 | inactive: -10.9% |
| CCCCn1nnnc1C(c1cccc2ccccc12)N1CCC(n2c(=O)[nH]c3ccccc32)CC1 (stereo not drawn) | inactive: 15.7% |
| CC(C)c1ccc(NC2CCN(C(=O)OC(C)(C)C)CC2)cc1 | inactive: -4.08% |
| CCCCn1nnnc1C(c1ccccc1OC(F)(F)F)N1CCC(n2c(=O)[nH]c3ccccc32)CC1 (stereo not drawn) | inactive: 18.4% |
| CN(C)c1cccc(C(=O)NCC2(N3CCCCC3)CCCCC2)c1 | inactive: 5.11% |
| COc1ccc(CN(CCCl)CCCl)cc1Cl | inactive: 11.2% |
| O=C(NCC1(N2CCOCC2)CCCCC1)c1cc(F)c(F)cc1Cl | inactive: -10.1% |
| CCC(c1nnnn1C(C)(C)C)N1CCC(n2c(=O)[nH]c3ccccc32)CC1 (stereo not drawn) | inactive: -10.7% |
| COc1cc(OC)c(C(=O)NCC2(N(C)C)CCCCC2)cc1OC | inactive: -4.8% |
| CCCCn1nnnc1C(c1ccnc2ccccc12)N1CCC(n2c(=O)[nH]c3ccccc32)CC1 (stereo not drawn) | inactive: 3.82% |
| CN1CCC(Nc2cccc(F)c2)CC1 | inactive: -0.39% |
| O=C(NCC1(N2CCCCC2)CCCCC1)c1cncc(Br)c1 | inactive: 6.46% |
| COc1ccc(C(c2nnnn2C2CCCC2)N2CCC(n3c(=O)[nH]c4ccccc43)CC2)cc1 (stereo not drawn) | inactive: -1.47% |
| CCCOc1ccc(C(=O)NCC2(N(C)C)CCCCC2)cc1OC | inactive: -1.72% |
| Cc1ccc(C(=O)NCC2(N(C)C)CCCCC2)o1 | inactive: -13.4% |
| COc1cc(C(=O)NCC2(N3CCOCC3)CCCCC2)cc(OC)c1C | inactive: -3.02% |
| CCCCn1nnnc1C(c1ccccc1)N1CCC(n2c(=O)[nH]c3ccccc32)CC1 (stereo not drawn) | inactive: 18.6% |
| O=C(NCC1(N2CCOCC2)CCCCC1)c1cc(Br)ccc1Cl | inactive: -5.51% |
| O=c1[nH]c2ccccc2n1C1CCN(C(c2cccs2)c2nnnn2C2CCCCC2)CC1 (stereo not drawn) | inactive: 23.6% |
| O=c1[nH]c2ccccc2n1C1CCN(C(c2ccnc3ccccc23)c2nnnn2C2CCCC2)CC1 (stereo not drawn) | inactive: -12.3% |

| SMILES | inhibition |
| --- | --- |
| COc1ccc(C(=O)NCC2(N3CCOCC3)CCCCC2)cc1OC | inactive: -1.79% |
| CCOC(=O)N1CCC(Nc2ccc(C)cc2)CC1 | inactive: -0.69% |
| COc1cccc(C(c2nnnn2C(C)(C)C)N2CCC(n3c(=O)[nH]c4ccccc43)CC2)c1OC (stereo not drawn) | inactive: 10.3% |
| N/C(=N\O)c1c(N)no[n+]1[O-] | inactive: -2.4% |
| O=c1[nH]c2ccccc2n1C1CCN(C(c2cccs2)c2nnnn2C2CCCC2)CC1 (stereo not drawn) | inactive: 20.2% |
| O=C(OC1CN2CCC1CC2)C1c2ccccc2C=Cc2ccccc21 (stereo not drawn) | inactive: 2.13% |
| CCCCn1nnnc1C(c1cccc(OC)c1OC)N1CCC(n2c(=O)[nH]c3ccccc32)CC1 (stereo not drawn) | inactive: 41.1% |
| N#Cc1ccc(C(=O)NCC2(N3CCCCC3)CCCCC2)cc1 | inactive: 2.33% |
| CC(C)(C)OC(=O)N1CCC(N(C(=O)c2ccccc2)c2ccc(Cl)cc2)CC1 | inactive: -13.2% |
| CN(C)C1(CNC(=O)c2cccc(C#N)c2)CCCCC1 | inactive: 5.27% |
| CCCN1CCC(Nc2cc(OC)cc(OC)c2)CC1 | inactive: 31.9% |
| O=c1[nH]c2ccccc2n1C1CCN(C(c2ccccc2)c2nnnn2C2CCCC2)CC1 (stereo not drawn) | inactive: 0.95% |
| Cc1cc(N(CCCl)CCCl)ccc1C=O | inactive: 4.01% |
| c1ccc(CN2CCC(Nc3ccccc3)CC2)cc1 | inactive: -6.13% |
| CC(C)(C)n1nnnc1C(c1cccc2ccccc12)N1CCC(n2c(=O)[nH]c3ccccc32)CC1 (stereo not drawn) | inactive: 45.1% |
| CCC(c1nnnn1C1CCCCC1)N1CCC(n2c(=O)[nH]c3ccccc32)CC1 (stereo not drawn) | inactive: 0.96% |
| COc1cccc(C(c2nnnn2C2CCCCC2)N2CCC(n3c(=O)[nH]c4ccccc43)CC2)c1OC (stereo not drawn) | inactive: 45.4% |
| CC(=O)N(c1ccccc1)C1CCNCC1 | inactive: 8.68% |
| COc1cc(OC)cc(C(=O)NCC2(N3CCCCC3)CCCCC2)c1 | inactive: -10.2% |
| O=c1[nH]c2ccccc2n1C1CCN(C(c2ccnc3ccccc23)c2nnnn2C2CCCCC2)CC1 (stereo not drawn) | inactive: 11.4% |
| Fc1ccccc1NC1CCN(Cc2ccccc2)CC1 | inactive: 1.94% |
| Cc1ccc(C(=O)NCC2(N3CCCCC3)CCCCC2)o1 | inactive: -1.1% |

| SMILES | inhibition |
| --- | --- |
| Cc1ccc(NC2(C#N)CCN(Cc3ccccc3)CC2)cc1 | inactive: -1.08% |
| COc1ccc(C(c2nnnn2C2CCCCC2)N2CCC(n3c(=O)[nH]c4ccccc43)CC2)cc1 (stereo not drawn) | inactive: 32.5% |
| CCN1CCC(Nc2cccc(F)c2)CC1 | inactive: 22.9% |
| CC(C)(C)n1nnnc1C(c1ccnc2ccccc12)N1CCC(n2c(=O)[nH]c3ccccc32)CC1 (stereo not drawn) | inactive: -33.5% |
| Cc1ccccc1NC1(C#N)CCN(Cc2ccccc2)CC1 | inactive: 18.5% |
| CN(C)c1ccc(C(=O)NCC2(N3CCCCC3)CCCCC2)cc1 | inactive: -3.31% |
| Cn1c(=O)[nH]cc(N(CCCl)CCCl)c1=O | inactive: 0.43% |
| O=C(NCC1(N2CCCCC2)CCCCC1)c1ccco1 | inactive: 3.35% |
| CN1CCC(Nc2ccc(F)c(Cl)c2)CC1 | inactive: -6.79% |
| CCOc1ncccc1C(=O)NCC1(N2CCOCC2)CCCCC1 | inactive: -8.26% |
| NN(c1ccccc1)C1CCN(CCc2ccccc2)CC1 | inactive: -9.18% |
| O=C(O)C1(Nc2ccccc2)CCN(Cc2ccccc2)CC1 | inactive: 1.34% |
| CC(C)(C)OC(=O)N1CCC(Nc2ccccc2)CC1 | inactive: -7.57% |
| O=c1[nH]c2ccccc2n1C1CCN(C(c2cc3ccccc3o2)c2nnnn2C2CCCC2)CC1 (stereo not drawn) | inactive: 42.2% |
| CCCOc1ccc(C(=O)NCC2(N(C)C)CCCCC2)cc1 | inactive: 14.2% |
| COc1cccc(C(=O)N(c2cc(C)cc(C)c2)C2CCN(C(=O)OC(C)(C)C)CC2)c1 | inactive: 7.66% |
| COc1cccc(C(c2nnnn2C2CCCC2)N2CCC(n3c(=O)[nH]c4ccccc43)CC2)c1OC (stereo not drawn) | inactive: 31.6% |
| COc1cc(OC)cc(C(=O)NCC2(N3CCOCC3)CCCCC2)c1 | inactive: -19.1% |
| CCC(CO)(C(=O)OC1CN2CCC1CC2)c1ccccc1 (stereo not drawn) | inactive: 18.9% |
| CN1CCC(Nc2ccc(Cl)cc2)CC1 | inactive: -3.36% |
